# According to patent publication US6323240A, “4-phenyl-4-oxo-butanoic acid derivatives with kynurenine-3-hydroxylase inhibiting activity” (Pharmacia & Upjohn S.p.A., priority 1995, dated 2001):
# Sequences of proteins named here, by UniProt entry; tags and fusion partners are left off. A change or cut given only in a name is not applied to a line headed by its entry.
# UniProt O88867: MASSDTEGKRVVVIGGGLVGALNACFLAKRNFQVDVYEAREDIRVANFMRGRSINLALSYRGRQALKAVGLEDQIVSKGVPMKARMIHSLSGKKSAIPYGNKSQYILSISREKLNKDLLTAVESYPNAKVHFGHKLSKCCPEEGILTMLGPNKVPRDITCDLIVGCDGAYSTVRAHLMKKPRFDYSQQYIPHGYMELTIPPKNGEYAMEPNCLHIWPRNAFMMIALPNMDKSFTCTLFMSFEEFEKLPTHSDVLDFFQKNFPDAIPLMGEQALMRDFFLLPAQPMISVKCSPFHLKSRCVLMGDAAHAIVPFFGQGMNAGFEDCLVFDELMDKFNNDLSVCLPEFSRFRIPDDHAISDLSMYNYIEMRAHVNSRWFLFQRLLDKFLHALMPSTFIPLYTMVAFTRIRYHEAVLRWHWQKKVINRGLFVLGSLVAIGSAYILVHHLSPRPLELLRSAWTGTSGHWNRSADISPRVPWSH
# Target: kynurenine-3-hydroxylase (Rattus norvegicus, UniProt O88867)
# Assay: Kynurenine-3-hydroxylase assay in the rat liver (radiometric, tritiated water release, rat liver mitochondrial extract)
# Format: biochemical
# Parameters: Rat liver mitochondrial extract was used as enzymatic preparation for this assay; from tissue; host or cells: rat liver mitochondrial extract
# Settings: 0.025 mM L-kynurenine, pH 8.1, 37° C., 30 min
# Description: Kynurenine-3-hydroxylase Assay in the Rat Liver
# The assay for kynurenine 3-hydroxylase was based on the enzymatic synthesis of tritiated water during the hydroxylation reaction. Radiolabeled water was quantified following selective adsorption of the isotopic substrate and its metabolite with activated charcoal.
# Rat liver mitochondrial extract was used as enzymatic preparation for this assay.
# The assay for kynurenine 3-hydroxylase activity was carried out at 37° C. for a time of 30 min. The reaction mixture of a total volume of […] was constituted of […] of suspended extract, 100 mM Tris/Cl^- buffer pH 8.1, 10 mM EDTA, 100 mM Kcl, 0.8 mM NADPH, 0.025 mM L-kynurenine, […] L-(3,5-^3 H)Kynurenine (10 Ci/mmol) and […] of different concentration of inhibitor solutions. After the incubation the reaction was terminated by the addition of 1 mL of 7.5% (w/v) activated charcoal, vortexed and centrifugated for 7 min.
# A […] aliquot of supernatant was counted by scintillation spectroscopy in 5 ml of liquid scintillation.
row,IC50 [µM],SMILES
1,2.8,"O=C(CC(O)C(=O)O)c1ccc(F)c(F)c1 (racemic) [PNU 158783, (R,S)-2-hydroxy-4-(3',4'-difluorophenyl)-4-oxo-butanoic acid]"
2,11.5,"O=C(CC(O)C(=O)O)c1cccc(F)c1 (racemic) [PNU 158790, (R,S)-2-hydroxy-4-(3'-fluorophenyl)-4-oxo-butanoic acid]"
3,11.2,"O=C(CC(O)C(=O)O)c1cccc([N+](=O)[O-])c1 (racemic) [PNU 158791, (R,S)-2-hydroxy-4-(3'-nitrophenyl)-4-oxo-butanoic acid]"
